Each structure is given as a SMILES string.

In the test the target is T1, Phex524 (CYP71CU1) (Sinopodophyllum hexandrum, UniProt A0A0N9HTU1).
T1 sequence (A0A0N9HTU1 1-493): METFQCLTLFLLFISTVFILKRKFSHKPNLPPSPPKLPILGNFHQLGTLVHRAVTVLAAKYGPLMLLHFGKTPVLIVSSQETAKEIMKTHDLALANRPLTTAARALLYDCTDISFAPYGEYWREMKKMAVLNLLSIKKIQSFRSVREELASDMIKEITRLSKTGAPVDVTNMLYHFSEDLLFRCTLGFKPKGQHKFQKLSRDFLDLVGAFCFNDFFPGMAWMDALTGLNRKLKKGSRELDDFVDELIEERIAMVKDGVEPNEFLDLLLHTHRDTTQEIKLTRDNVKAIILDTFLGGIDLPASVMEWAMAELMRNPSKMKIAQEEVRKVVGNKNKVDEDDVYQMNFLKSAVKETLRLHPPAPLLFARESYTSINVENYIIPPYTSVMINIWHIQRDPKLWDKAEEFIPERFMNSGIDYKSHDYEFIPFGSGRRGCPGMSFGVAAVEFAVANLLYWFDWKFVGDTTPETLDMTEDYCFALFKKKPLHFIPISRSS
Briefly: yeast microsome turnover, LC-MS. Type of test: biochemical. The settings on record: NADPH; product (−)-5′-desmethyl-yatein.

Take `COc1ccc(C[C@H]2C(=O)OC[C@@H]2Cc2ccc3c(c2)OCO3)cc1OC` [(−)-5′-desmethoxy-yatein]: the “yeast microsome turnover, LC-MS” value is “incubation of (−)-5′-desmethoxy-yatein with CYP71CU1 and the reduced form of nicotinamide adenine dinucleotide phosphate”.

Values taken from article PMC6861171 (Science (New York, N.Y.), 2015).
